Reference: PMC11472320, “Computationally Driven Discovery of a BCR-ABL1 Kinase Inhibitor with Activity in Multidrug-Resistant Chronic Myeloid Leukemia” (Journal of Medicinal Chemistry, 2024)

Sequences of proteins named here, by UniProt entry; tags and fusion partners are left off. A change or cut given only in a name is not applied to a line headed by its entry. Residues count along the entry.
UniProt Q8NEV4: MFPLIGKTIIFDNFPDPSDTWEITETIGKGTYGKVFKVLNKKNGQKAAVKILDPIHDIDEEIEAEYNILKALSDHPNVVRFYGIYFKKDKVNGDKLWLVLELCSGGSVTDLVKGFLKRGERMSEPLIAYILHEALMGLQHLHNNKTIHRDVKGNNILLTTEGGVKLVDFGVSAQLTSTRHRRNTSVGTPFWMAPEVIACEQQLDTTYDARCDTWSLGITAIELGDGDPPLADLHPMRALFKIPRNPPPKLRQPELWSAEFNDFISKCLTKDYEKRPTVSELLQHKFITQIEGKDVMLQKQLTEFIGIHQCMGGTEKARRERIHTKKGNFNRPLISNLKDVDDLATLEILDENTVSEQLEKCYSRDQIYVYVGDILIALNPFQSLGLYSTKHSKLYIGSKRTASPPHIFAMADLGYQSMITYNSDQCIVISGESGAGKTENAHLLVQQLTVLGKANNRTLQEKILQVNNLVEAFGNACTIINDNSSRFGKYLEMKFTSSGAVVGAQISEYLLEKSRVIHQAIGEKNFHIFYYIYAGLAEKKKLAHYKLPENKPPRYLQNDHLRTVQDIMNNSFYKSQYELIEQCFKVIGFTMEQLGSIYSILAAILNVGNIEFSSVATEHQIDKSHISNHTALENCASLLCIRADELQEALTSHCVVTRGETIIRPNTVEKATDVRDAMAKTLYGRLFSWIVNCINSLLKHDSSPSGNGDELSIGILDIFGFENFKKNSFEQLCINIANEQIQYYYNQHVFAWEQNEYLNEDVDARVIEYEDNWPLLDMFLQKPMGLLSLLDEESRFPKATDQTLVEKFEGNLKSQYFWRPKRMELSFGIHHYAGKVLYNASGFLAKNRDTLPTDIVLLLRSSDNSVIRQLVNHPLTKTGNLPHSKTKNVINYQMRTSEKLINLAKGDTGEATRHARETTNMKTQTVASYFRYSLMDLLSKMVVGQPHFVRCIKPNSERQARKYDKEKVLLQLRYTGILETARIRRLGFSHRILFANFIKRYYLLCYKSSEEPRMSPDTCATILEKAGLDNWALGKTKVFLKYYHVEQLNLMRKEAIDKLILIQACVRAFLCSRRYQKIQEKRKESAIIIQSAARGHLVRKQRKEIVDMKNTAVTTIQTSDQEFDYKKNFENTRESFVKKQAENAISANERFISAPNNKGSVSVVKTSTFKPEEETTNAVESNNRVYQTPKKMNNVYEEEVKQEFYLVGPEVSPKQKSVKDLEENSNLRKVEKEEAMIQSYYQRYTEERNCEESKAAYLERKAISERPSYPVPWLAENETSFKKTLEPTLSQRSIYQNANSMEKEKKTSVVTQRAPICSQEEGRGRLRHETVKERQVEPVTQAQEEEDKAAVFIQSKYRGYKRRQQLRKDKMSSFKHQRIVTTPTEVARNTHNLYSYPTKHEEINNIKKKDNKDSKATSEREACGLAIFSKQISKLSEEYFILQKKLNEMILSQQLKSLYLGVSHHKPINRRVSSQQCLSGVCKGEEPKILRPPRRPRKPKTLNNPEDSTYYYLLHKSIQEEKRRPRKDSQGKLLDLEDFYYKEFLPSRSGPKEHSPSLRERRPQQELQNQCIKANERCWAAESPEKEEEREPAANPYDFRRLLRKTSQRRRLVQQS
UniProt Q9NQU5: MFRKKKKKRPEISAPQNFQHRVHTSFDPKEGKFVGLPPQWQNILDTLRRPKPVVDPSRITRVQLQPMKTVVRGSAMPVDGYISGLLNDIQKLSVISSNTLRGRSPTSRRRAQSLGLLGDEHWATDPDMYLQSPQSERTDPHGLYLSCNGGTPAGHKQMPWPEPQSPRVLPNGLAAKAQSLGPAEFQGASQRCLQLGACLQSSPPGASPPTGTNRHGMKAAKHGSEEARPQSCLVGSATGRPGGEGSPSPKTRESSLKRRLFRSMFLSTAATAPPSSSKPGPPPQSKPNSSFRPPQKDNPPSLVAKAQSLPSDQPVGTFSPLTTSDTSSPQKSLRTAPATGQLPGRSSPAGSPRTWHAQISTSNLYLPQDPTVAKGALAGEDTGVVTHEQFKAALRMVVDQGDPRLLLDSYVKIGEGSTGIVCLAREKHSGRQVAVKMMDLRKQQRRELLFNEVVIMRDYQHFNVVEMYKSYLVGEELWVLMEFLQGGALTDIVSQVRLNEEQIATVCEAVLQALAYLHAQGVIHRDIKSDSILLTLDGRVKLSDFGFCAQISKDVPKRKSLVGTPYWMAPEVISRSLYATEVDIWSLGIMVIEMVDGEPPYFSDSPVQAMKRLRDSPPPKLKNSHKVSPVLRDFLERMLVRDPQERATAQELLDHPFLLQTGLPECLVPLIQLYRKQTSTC
UniProt P11309, whole entry: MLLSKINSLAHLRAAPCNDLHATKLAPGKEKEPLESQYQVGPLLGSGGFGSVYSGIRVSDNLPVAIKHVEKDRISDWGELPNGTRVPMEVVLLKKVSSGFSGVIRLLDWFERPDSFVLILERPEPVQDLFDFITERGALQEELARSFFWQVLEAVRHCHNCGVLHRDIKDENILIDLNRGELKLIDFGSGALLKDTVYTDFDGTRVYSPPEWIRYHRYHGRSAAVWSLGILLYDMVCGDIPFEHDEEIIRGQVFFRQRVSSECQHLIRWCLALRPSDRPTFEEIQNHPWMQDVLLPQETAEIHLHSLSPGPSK
UniProt P57078: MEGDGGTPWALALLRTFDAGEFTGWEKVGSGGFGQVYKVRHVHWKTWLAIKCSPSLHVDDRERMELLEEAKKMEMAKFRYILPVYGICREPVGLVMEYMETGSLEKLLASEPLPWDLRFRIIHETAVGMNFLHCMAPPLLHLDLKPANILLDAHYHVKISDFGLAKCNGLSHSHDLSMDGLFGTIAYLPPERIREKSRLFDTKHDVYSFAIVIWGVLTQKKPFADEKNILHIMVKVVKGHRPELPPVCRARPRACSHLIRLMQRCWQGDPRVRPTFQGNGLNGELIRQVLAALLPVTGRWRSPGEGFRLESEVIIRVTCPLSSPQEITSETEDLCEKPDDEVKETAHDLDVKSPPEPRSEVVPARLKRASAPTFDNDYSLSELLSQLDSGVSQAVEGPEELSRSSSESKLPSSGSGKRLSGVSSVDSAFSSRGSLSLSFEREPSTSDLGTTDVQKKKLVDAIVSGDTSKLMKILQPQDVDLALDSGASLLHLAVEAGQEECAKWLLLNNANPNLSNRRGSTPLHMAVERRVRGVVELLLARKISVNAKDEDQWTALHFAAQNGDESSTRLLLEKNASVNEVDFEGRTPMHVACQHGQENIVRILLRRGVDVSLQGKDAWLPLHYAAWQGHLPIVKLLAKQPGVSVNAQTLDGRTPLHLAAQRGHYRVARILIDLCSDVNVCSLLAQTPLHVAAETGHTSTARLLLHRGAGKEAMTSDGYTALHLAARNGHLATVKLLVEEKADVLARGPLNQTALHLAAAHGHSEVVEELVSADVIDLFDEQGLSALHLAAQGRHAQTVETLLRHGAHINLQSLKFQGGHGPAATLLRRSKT
UniProt Q86Y07: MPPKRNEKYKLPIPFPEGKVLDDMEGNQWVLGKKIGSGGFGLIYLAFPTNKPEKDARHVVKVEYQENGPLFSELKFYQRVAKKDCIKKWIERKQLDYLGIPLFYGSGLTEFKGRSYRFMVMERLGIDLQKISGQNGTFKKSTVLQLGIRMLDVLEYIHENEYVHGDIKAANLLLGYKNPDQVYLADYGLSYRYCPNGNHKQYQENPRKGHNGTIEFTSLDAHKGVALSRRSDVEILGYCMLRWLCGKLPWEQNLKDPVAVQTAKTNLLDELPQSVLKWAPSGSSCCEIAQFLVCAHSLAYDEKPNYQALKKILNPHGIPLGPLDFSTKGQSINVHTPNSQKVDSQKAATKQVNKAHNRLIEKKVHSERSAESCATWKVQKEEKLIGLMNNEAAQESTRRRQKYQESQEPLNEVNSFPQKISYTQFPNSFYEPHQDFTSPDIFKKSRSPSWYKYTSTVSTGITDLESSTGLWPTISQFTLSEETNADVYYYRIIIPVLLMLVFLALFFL
UniProt Q16832, 22-855: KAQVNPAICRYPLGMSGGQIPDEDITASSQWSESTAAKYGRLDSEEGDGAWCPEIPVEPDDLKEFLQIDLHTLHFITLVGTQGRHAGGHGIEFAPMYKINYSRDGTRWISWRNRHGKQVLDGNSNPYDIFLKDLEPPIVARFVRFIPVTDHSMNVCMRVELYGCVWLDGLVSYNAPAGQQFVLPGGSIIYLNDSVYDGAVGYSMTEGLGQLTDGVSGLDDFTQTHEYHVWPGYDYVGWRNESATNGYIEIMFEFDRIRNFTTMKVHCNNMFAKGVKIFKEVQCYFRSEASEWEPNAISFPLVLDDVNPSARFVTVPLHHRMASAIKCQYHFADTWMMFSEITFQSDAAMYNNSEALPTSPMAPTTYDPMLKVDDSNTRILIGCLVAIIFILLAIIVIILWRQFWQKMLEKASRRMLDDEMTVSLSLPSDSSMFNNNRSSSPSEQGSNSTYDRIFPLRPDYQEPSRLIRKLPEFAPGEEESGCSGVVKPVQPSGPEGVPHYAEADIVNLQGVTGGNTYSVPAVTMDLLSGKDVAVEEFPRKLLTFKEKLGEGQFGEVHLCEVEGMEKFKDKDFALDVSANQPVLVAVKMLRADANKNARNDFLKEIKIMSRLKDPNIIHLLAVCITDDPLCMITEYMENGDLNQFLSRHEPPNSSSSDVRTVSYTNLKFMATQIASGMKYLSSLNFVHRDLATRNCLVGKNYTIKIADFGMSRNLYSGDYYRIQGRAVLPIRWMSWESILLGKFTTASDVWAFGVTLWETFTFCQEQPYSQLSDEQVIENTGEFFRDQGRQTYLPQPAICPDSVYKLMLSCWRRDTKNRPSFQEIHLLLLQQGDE
UniProt P11802: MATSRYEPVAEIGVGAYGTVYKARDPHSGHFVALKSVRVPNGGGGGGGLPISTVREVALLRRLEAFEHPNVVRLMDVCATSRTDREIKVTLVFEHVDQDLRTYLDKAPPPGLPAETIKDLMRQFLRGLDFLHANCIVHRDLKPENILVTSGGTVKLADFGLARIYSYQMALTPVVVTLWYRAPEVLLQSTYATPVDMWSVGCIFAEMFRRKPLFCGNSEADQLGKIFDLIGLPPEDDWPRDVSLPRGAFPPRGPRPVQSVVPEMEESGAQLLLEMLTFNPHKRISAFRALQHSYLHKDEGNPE
UniProt O14976: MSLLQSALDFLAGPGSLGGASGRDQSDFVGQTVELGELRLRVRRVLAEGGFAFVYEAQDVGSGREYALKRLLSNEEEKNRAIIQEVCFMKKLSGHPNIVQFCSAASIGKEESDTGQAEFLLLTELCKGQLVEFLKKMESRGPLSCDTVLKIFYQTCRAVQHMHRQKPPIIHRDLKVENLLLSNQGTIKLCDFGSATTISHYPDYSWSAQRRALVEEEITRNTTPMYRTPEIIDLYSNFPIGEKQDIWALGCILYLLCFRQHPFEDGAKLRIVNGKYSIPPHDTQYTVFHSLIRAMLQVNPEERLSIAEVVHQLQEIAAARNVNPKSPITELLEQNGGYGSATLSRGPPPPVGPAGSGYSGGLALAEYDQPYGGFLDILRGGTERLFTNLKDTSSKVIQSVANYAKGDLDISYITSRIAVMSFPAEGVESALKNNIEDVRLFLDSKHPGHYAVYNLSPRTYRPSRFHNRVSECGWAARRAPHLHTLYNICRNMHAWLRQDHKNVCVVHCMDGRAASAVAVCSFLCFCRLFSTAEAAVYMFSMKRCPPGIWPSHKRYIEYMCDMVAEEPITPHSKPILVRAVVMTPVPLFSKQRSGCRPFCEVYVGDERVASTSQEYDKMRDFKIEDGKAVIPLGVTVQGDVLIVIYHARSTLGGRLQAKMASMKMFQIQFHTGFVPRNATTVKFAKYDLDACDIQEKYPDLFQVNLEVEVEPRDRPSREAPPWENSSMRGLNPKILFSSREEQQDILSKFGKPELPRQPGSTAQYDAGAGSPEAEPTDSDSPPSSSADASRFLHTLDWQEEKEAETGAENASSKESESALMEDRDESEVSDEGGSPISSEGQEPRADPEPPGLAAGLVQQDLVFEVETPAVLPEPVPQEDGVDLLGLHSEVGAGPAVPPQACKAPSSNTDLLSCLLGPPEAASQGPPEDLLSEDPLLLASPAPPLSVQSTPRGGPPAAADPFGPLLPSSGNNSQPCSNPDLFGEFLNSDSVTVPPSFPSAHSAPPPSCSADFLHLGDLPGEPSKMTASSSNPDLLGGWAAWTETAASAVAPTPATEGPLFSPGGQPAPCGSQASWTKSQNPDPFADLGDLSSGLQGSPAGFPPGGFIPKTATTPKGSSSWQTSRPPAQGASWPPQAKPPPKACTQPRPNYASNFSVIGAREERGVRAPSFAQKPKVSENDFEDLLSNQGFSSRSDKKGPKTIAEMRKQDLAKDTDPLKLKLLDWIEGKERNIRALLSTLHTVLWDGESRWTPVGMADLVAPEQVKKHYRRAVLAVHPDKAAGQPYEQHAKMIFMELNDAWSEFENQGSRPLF

Legend:
[1] = biological target: p38-gamma (Homo sapiens, UniProt P53778); assay: biochemical; details: read-out: Percent Control
[2] = biological target: ARK5 (Homo sapiens, UniProt O60285); assay: biochemical; details: read-out: Percent Control
[3] = biological target: MYO3A (Homo sapiens, UniProt Q8NEV4); assay: biochemical; details: read-out: Percent Control
[4] = biological target: PAK6 (Homo sapiens, UniProt Q9NQU5); assay: biochemical; details: read-out: Percent Control
[5] = biological target: RIPK2 (Homo sapiens, UniProt O43353); assay: biochemical; details: read-out: Percent Control
[6] = biological target: CHEK1 (Homo sapiens, UniProt O14757); assay: biochemical; details: read-out: Percent Control
[7] = biological target: FGFR2 (Homo sapiens, UniProt P21802); assay: biochemical; details: read-out: Percent Control
[8] = biological target: EPHA6 (Homo sapiens, UniProt Q9UF33); assay: biochemical; details: read-out: Percent Control
[9] = biological target: SgK110 (Homo sapiens, UniProt P0C264); assay: biochemical; details: read-out: Percent Control
[10] = biological target: RIPK5 (Homo sapiens, UniProt Q6XUX3); assay: biochemical; details: read-out: Percent Control
[11] = biological target: SIK (Homo sapiens, UniProt P57059); assay: biochemical; details: read-out: Percent Control
[12] = biological target: CSNK1G2 (Homo sapiens, UniProt P78368); assay: biochemical; details: read-out: Percent Control
[13] = biological target: PFTK1 (Homo sapiens, UniProt O94921); assay: biochemical; details: read-out: Percent Control
[14] = biological target: PDGFRA (Homo sapiens, UniProt P16234); assay: biochemical; details: read-out: Percent Control
[15] = biological target: PIM1 (Homo sapiens, UniProt P11309); assay: biochemical; details: read-out: Percent Control
[16] = biological target: p38-alpha (Homo sapiens, UniProt Q16539); assay: biochemical; details: read-out: Percent Control
[17] = biological target: ERK4 (Homo sapiens, UniProt P31152); assay: biochemical; details: read-out: Percent Control
[18] = biological target: RIPK4 (Homo sapiens, UniProt P57078); assay: biochemical; details: read-out: Percent Control
[19] = biological target: MST1R (Homo sapiens, UniProt Q04912); assay: biochemical; details: read-out: Percent Control
[20] = biological target: FGR (Homo sapiens, UniProt P09769); assay: biochemical; details: read-out: Percent Control
[21] = biological target: VRK2 (Homo sapiens, UniProt Q86Y07); assay: biochemical; details: read-out: Percent Control
[22] = biological target: MARK4 (Homo sapiens, UniProt Q96L34); assay: biochemical; details: read-out: Percent Control
[23] = biological target: PAK7 (Homo sapiens, UniProt Q9P286); assay: biochemical; details: read-out: Percent Control
[24] = biological target: LIMK2 (Homo sapiens, UniProt P53671); assay: biochemical; details: read-out: Percent Control
[25] = biological target: DDR1 (Homo sapiens, UniProt Q08345); assay: biochemical; details: read-out: Percent Control
[26] = biological target: EPHA8 (Homo sapiens, UniProt P29322); assay: biochemical; details: read-out: Percent Control
[27] = biological target: EPHA5 (Homo sapiens, UniProt P54756); assay: biochemical; details: read-out: Percent Control
[28] = biological target: MKNK1 (Homo sapiens, UniProt Q9BUB5); assay: biochemical; details: read-out: Percent Control
[29] = biological target: SNARK (Homo sapiens, UniProt Q9H093); assay: biochemical; details: read-out: Percent Control
[30] = biological target: CDKL3 (Homo sapiens, UniProt Q8IVW4); assay: biochemical; details: read-out: Percent Control
[31] = biological target: RET(M918T) (Homo sapiens, UniProt P07949, M918T); assay: biochemical; details: read-out: Percent Control
[32] = biological target: DDR2 (Homo sapiens, UniProt Q16832); assay: biochemical; details: read-out: Percent Control
[33] = biological target: CDK4-cyclinD1 (Homo sapiens, UniProt P11802); assay: biochemical; details: read-out: Percent Control
[34] = biological target: FES (Homo sapiens, UniProt P07332); assay: biochemical; details: read-out: Percent Control
[35] = biological target: CDC2L2 (Homo sapiens, UniProt Q9UQ88); assay: biochemical; details: read-out: Percent Control
[36] = biological target: NIK (Homo sapiens, UniProt Q99558); assay: biochemical; details: read-out: Percent Control
[37] = biological target: CTK (Homo sapiens, UniProt P42679); assay: biochemical; details: read-out: Percent Control
[38] = biological target: GAK (Homo sapiens, UniProt O14976); assay: biochemical; details: read-out: Percent Control
[39] = biological target: LKB1 (Homo sapiens, UniProt Q15831); assay: biochemical; details: read-out: Percent Control
[40] = biological target: INSRR (Homo sapiens, UniProt P14616); assay: biochemical; details: read-out: Percent Control
[41] = biological target: TYRO3 (Homo sapiens, UniProt Q06418); assay: biochemical; details: read-out: Percent Control
[42] = biological target: ERBB2 (Homo sapiens, UniProt P04626); assay: biochemical; details: read-out: Percent Control
[43] = tested on: 403 non-mutant kinases; details: of 403 non-mutant kinases, 1000 nM

COc1cc2c(Nc3ccc(Cl)c(OC)n3)c(C#N)cnc2cc1OCCON1CCN(C)CC1 [16a, 4-((5-Chloro-6-methoxypyridin-2-yl)amino)-6-methoxy-7-(2-((4-methylpiperazin-1-yl)oxy)ethoxy)quinoline-3-carbonitrile]
remaining activity at 1 µM [1]: 97% | remaining activity at 1 µM [2]: 74% | remaining activity at 1 µM [3]: 43% | remaining activity at 1 µM [4]: 99% | remaining activity at 1 µM [5]: 79% | remaining activity at 1 µM [6]: 6.9% | remaining activity at 1 µM [7]: 81% | remaining activity at 1 µM [8]: 90% | remaining activity at 1 µM [9]: 100% | remaining activity at 1 µM [10]: 22% | remaining activity at 1 µM [11]: 1.1% | remaining activity at 1 µM [12]: 92% | remaining activity at 1 µM [13]: 95% | remaining activity at 1 µM [14]: 100% | remaining activity at 1 µM [15]: 91% | remaining activity at 1 µM [16]: 50% | remaining activity at 1 µM [17]: 78% | remaining activity at 1 µM [18]: 100% | remaining activity at 1 µM [19]: 100% | remaining activity at 1 µM [20]: 5.4% | remaining activity at 1 µM [21]: 46% | remaining activity at 1 µM [22]: 60% | remaining activity at 1 µM [23]: 39% | remaining activity at 1 µM [24]: 100% | remaining activity at 1 µM [25]: 25% | remaining activity at 1 µM [26]: 1.1% | remaining activity at 1 µM [27]: 12% | remaining activity at 1 µM [28]: 100% | remaining activity at 1 µM [29]: 7.2% | remaining activity at 1 µM [30]: 76% | remaining activity at 1 µM [31]: 44% | remaining activity at 1 µM [32]: 19% | remaining activity at 1 µM [33]: 70% | remaining activity at 1 µM [34]: 14% | remaining activity at 1 µM [35]: 96% | remaining activity at 1 µM [36]: 18% | remaining activity at 1 µM [37]: 100% | remaining activity at 1 µM [38]: 3.9% | remaining activity at 1 µM [39]: 68% | remaining activity at 1 µM [40]: 90% | remaining activity at 1 µM [41]: 7% | remaining activity at 1 µM [42]: 7% | Number of Hits S(1) [43]: 30 | Number of Hits S(10) [43]: 79 | Number of Hits S(35) [43]: 131
